These are literature values, as cited in paper PMC3290704 (Journal of the American Chemical Society, 2012).

This data set has as its system TAZ2. As to conditions: chemical shift mapping.

For the substance “p53(14–28): p53(14–28) peptide used in earlier chemical shift mapping”, the “binding region on TAZ2” value was “hydrophobic surface at the interface between the α1, α2, and α3 helices”.
